Our source for the IC50 values is patent publication US10925881B2, “Treatment of conditions associated with hyperinsulinaemia” (Tensha Therapeutics, Inc., priority 2014, dated 2021).

For one test, the target named is BRD4(2) (Homo sapiens (Human), UniProt O60885). Briefly: Alpha-assay binding, BRD4 site 2. Particulars: 12-point dose response curve, read-out: Bio-assay IC50 BRD4(2).
Another test addresses BRD4(1) (Homo sapiens (Human), UniProt O60885). Briefly: Alpha-assay binding, BRD4 site 1. Particulars: 12-point dose response curve, read-out: Bio-assay IC50 BRD4(1). As for the experimental part:
The binding activity of lead compounds with the BRD4 site 1 was determined by Alpha-assay with a 12-point dose response curve.

For the compound `Cc1sc2c(c1C)C(c1ccc(Cl)cc1)=N[C@@H](CC(=O)NCCCN1CCN(C)CC1)c1nnc(C)n1-2` (stereo in doubt) [(S)-JQ35], the IC50 amounted to 6.13 nM on BRD4(2) and 24.3 nM at BRD4(1).

The term IC50 denotes the concentration needed to halve the response being measured.
